Data on 1 compound can be found in US8933056B2, “Soft protease inhibitors and pro-soft forms thereof” (Trustees of Tufts College, priority 2005, dated 2015).

Chains of the proteins cited; added tags and fusions are not shown. Lines headed by an entry give the natural chain unless they say otherwise; changes in a name come on top.
UniProt P22411: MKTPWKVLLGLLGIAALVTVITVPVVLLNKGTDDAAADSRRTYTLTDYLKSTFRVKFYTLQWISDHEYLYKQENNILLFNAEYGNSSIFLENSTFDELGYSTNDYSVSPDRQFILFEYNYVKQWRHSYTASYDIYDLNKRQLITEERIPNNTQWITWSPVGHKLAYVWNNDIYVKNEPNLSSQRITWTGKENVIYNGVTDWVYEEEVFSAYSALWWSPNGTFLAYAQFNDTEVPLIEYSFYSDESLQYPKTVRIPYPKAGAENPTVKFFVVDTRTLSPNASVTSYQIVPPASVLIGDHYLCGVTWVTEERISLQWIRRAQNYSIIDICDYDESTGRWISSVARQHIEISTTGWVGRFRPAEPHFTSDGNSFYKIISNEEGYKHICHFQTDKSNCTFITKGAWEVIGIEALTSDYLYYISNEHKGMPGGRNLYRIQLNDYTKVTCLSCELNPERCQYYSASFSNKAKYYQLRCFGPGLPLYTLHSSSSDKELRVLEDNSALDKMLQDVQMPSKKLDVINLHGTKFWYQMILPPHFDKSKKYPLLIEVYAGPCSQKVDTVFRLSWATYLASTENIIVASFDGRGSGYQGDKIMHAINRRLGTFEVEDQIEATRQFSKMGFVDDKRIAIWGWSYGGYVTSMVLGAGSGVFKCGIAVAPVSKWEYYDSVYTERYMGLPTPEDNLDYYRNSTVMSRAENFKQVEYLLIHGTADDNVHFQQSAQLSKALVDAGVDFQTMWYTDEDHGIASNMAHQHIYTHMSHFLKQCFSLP

Broadly, the IC50 is the concentration needed to halve the response being measured. Read a low IC50 as greater potency.

The target of this assay is DP-IV (Sus scrofa (Pig), UniProt P22411). Put plainly: DPP IV inhibition: thioxamide v. oxoamide. The class given is biochemical, porcine. How it is done: The inhibitory activity of a compound may be tested easily. […] A compound is then screened for its ability to inhibit the protease activity of DP-IV with respect to a […] substrate. […] Briefly, a reaction containing 50 micromol sodium Hepes (pH 7.8), 10 micromol Ala-Pro-p-nitroanilide, 6 milliunits of DP-IV, and 2% (vol/vol) dimethylformamide in a total volume of 1.0 mL. The reaction was initiated by the addition of enzyme and reaction rates were measured at 25 C; formation of reaction product (para-nitroanilide) in the presence and absence of a test compound can be detected photometrically, e.g., at 410 nm.

`N[C@@H](CC(=O)O)C(=O)N1CCC[C@H]1B(O)O` [Asp-boroPro, reference compound]: the IC50 is 0.2 µM (IC50 (pH 2.0), pH 2.0) and 35 µM (IC50 (pH 8.0), pH 8.0). For the same compound, the “Inactivation Index” value (IC50 pH 8.0 to pH 2.0) was 180.
